Measurements published in patent publication US10092657B2, “Opsonized β-glucan preparations and methods” (Biothera, Inc., priority 2011, dated 2018).

How the values were obtained:
[1] = test system: human neutrophils; test: Binding studies on the role of complement proteins in serum, neutrophils; type: cell-based; details: compstatin/control peptide 20 or 100 μM; methylamine 0.67%; 166-32 20 μg/mL; HSA 10%
Experimental: (§1) To determine the role of complement proteins in binding, experiments were performed as described above except for using serum containing 10% HI, compstatin-treated or methylamine (MA)-treated, EGTA- or EGTA+MgCl2 (MgEGTA)-treated, or factor D-blocked serum. Heat-inactivated (HI) serum was prepared by incubating serum in a 56° C. water bath for 30 minutes. […] Treatment of serum with methylamine (MA) was done by incubating serum with 0.67% of methylamine for 2.5 hours at 37° C., followed by three washes with DPBS using Amicon centrifugal filter unit with a 3K MW cut-off (Millipore, Billerica, Mass.). DPBS-treated serum was prepared in the same manner and used as control serum for MA-treated serum. For blocking of factor D in the serum, 166-32 at concentration 20 μg/mL was incubated with serum on ice for 30 minutes, and then used for binding studies. For binding experiments in the presence of EGTA or MgEGTA, serum was incubated with 10 mM EGTA with or without 10 mM MgCl2 for 10 minutes at room temperature. The untreated and EGTA/MgEGTA-treated serum was then used to pre-treat PGG and perform binding studies as described earlier.

[2] = test system: human monocytes; test: Binding studies on the role of complement proteins in serum, monocytes; type: cell-based; details: compstatin/control peptide 20 or 100 μM; methylamine 0.67%; 166-32 20 μg/mL; HSA 10%
Experimental: as §1

## HSA: human serum albumin, non-specific serum protein control
[1]
  Effect of the agent added to serum or media on binding of PGG β-glucan: did not restore soluble β-glucan binding to cells
[2]
  Effect of the agent added to serum or media on binding of PGG β-glucan: did not restore soluble β-glucan binding to cells
